## AlphaSeq binding of Ab-14 light chain variants to a spike HR2 peptide

From the AlphaSeq antibody data of Engelhart et al. 2022 (doi:10.1038/s41597-022-01779-4), copy in the FLAb collection.

Target peptide (SARS-CoV-2 spike, HR2 region): PDVDLGDISGINAS

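Phage display of a naive human antibody library on the peptide gave the parent. AAYL50 was designed without a model: most single CDR substitutions and a random sample of double and triple ones. AlphaSeq pools MATa yeast showing the antibodies with MATalpha yeast showing the peptide. Binding brings cells together so that they mate, and sequencing counts the barcode pairs among the diploids. Each replicate has its own calibration line, from reference interactions of the BCL2 family. Each pool was mated in three replicate cultures.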

Parent scFv Ab-14: VH joined to VL by the linker GGGGSGGGGSGGGGS. Changes lie in the light chain CDRs alone.
VH: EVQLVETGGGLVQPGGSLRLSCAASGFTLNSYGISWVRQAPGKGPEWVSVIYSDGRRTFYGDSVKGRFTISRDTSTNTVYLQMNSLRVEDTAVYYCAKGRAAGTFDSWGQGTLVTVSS
VL: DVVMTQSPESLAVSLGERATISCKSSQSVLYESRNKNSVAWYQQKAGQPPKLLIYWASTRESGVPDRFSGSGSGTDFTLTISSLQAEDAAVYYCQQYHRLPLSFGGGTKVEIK

The parent's light chain CDRs are KSSQSVLYESRNKNSVA, WASTRES, QQYHRLPLS; each variant's own CDRs replace them letter for letter.
Scale: log10 of Kd in nM, estimated from mating counts; low values are strong binders.
Averages over replicates are reported, and they cover detected replicates only.
"ND" marks a missing value. The strain was present, yet no cells mated with the target were sequenced in that replicate, which points to weak or no binding.
As a blank, each scFv also met three strains without target: over library AAYL50, 18% of these pairings were detected, typically at 4.19 and seldom below 2.99. For each scFv, signals with the empty controls are counted beside the result, with their mean in brackets.
Parent in this assay: reference entry 0.65, copy in this library 1.68.

| # | CDR-L1 | CDR-L2 | CDR-L3 | log10 Kd (nM) by replicate | mean, log10 nM | signal with controls |
|---|---|---|---|---|---|---|
| 1 | KSSVSVLYESRNKNSVA | WASTRES | CQYHRLPLS | ND / ND / ND | ND | 3 of 9 (4.59) |
| 2 | KSSQSVTYESRNKNSVA | WASTRES | QQQQRLPLS | ND / ND / ND | ND | 0 of 9 |
| 3 | CSSMSVLYESRNKNSVA | WASTYES | QQYHRLPLS | ND / ND / ND | ND | 1 of 9 (3.41) |
| 4 | KSSQTVLYESRNKNSVA | WASTRES | QQYHRAPLM | ND / ND / ND | ND | 2 of 9 (2.86) |
| 5 | KSSQCVQYESRNKNSRA | WASTRES | QQYHRLPLS | ND / ND / ND | ND | 0 of 9 |
| 6 | KSSQSVLYESRNKNSVA | WASTREF | QQYHRLPLS | 1.54 / 1.81 / 1.63 | 1.66 | 2 of 9 (3.36) |
| 7 | KSSQSCLYESRNVNSVA | WASTRES | QQYHLLPLS | 2.21 / 2.18 / 2.71 | 2.37 | 1 of 9 (5.52) |
| 8 | KKSQSVLYESRYKNSVA | WASTRES | QQYHRLPRS | 3.08 / ND / ND | 3.08 | 0 of 9 |
| 9 | KSSQSVLYESRNKNSVA | WASTRFM | YQYHRLPLS | 1.10 / 1.62 / 1.15 | 1.29 | 0 of 9 |
| 10 | KSSQSVLYESRNKNVVA | WASTRES | QQSHRLYLS | ND / 2.89 / 5.00 | 3.95 | 2 of 9 (4.29) |
| 11 | KSGQSPLYESRNKNSVA | WASTRES | QQNHRLPLS | ND / ND / ND | ND | 0 of 9 |
| 12 | KSSQSVLYESLNKNSNA | WASTQES | QQYHRLPLS | 3.82 / ND / ND | 3.82 | 1 of 9 (2.58) |
| 13 | KSYQSVLYESGNKNSVY | WASTRES | QQYHRLPLS | ND / ND / ND | ND | 0 of 9 |
| 14 | KSSQSVLMEIRNKNSVA | WASTRES | VQYHRLPLS | 4.44 / 4.16 / ND | 4.30 | 1 of 9 (4.15) |
| 15 | KSSPSVLYESRNKNSVA | IASTRER | QQYHRLPLS | ND / ND / 3.51 | 3.51 | 2 of 9 (4.55) |
| 16 | KSSQSDLYESRKKNSVA | WASTRES | QQYHRLPLS | 2.71 / 2.60 / 2.41 | 2.57 | 3 of 9 (4.73) |
| 17 | KSSQSVLYNSRNKNSVA | WASGRES | QQYHRLPWS | ND / ND / ND | ND | 0 of 9 |
| 18 | KSSQSVLLESRNKNSCA | WASTRES | QQSHRLPLS | 5.24 / 3.12 / 4.13 | 4.16 | 4 of 9 (3.94) |
| 19 | KSSQSVLYSSRNKNSVA | WASTRES | QQYHSLPLK | ND / ND / ND | ND | 1 of 9 (3.95) |
| 20 | KSSQSVLFESRNKNSVA | WASTRES | QAYHRLPAS | 3.30 / ND / 2.44 | 2.87 | 3 of 9 (3.27) |
| 21 | KSSQSVLYESRNKNSVA | WAMTRES | QQYHPRPLS | 4.60 / 4.35 / ND | 4.47 | 3 of 9 (4.74) |
| 22 | KSSQSVFYESRNKNSVA | WASTREG | QQYHRHPLS | 1.22 / 1.59 / 1.68 | 1.50 | 1 of 9 (3.12) |
| 23 | KSSQSVLYESRRKNSVA | WASTRES | KQYHGLPLS | ND / 3.13 / ND | 3.13 | 4 of 9 (3.98) |
| 24 | KSSQSVLRESRNCNSVA | WASTRES | QQYHRLPWS | 2.13 / 2.13 / 2.13 | 2.13 | 5 of 9 (4.72) |
| 25 | KSEQSLLYESRNKNSVA | WASTRES | QQYHRLPLS | 0.19 / 0.53 / 0.43 | 0.38 | 2 of 9 (4.21) |
| 26 | KSSQSVLYESRNKNPVA | WASTYES | YQYHRLPLS | ND / ND / ND | ND | 2 of 9 (3.83) |
| 27 | KSSNSVLYESRNKNSVA | WASTRES | QCYPRLPLS | ND / ND / ND | ND | 0 of 9 |
| 28 | KSSQSVAYESRNKNSVA | WASTRES | QQYHRLPLH | 1.37 / 1.30 / 1.36 | 1.34 | 1 of 9 (3.69) |
| 29 | KSSQSDLYESRNKNSVA | WASTREQ | QQYHRLPLS | 0.26 / 0.51 / 0.50 | 0.42 | 3 of 9 (4.33) |
| 30 | KSSPSVLYEGRNKNSVA | WASNRES | QQYHRLPLS | 1.32 / 1.58 / 1.64 | 1.51 | 2 of 9 (3.36) |
| 31 | WSSQNVLYESRNKNSVA | WASIRES | QQYHRLPLS | 2.45 / 2.35 / 2.64 | 2.48 | 3 of 9 (3.64) |
| 32 | KSSQSVLYESRSKSSVA | WASTRES | QSYHRLPLS | 2.55 / 2.54 / 2.65 | 2.58 | 5 of 9 (4.58) |
| 33 | KSSQSVLYESCNKNSYA | WAYTRES | QQYHRLPLS | ND / ND / ND | ND | 1 of 9 (2.33) |
| 34 | KSSQSVLSESRNKNSMA | WASTRES | QQYHRLPLS | 1.00 / 1.21 / 1.23 | 1.15 | 2 of 9 (4.11) |
| 35 | KSSQSVLYESRNKSSVK | WASTRAS | QQYHRLPLS | ND / 5.69 / ND | 5.69 | 4 of 9 (4.64) |
| 36 | KSSQSVLYESFNKNSVA | WGSTRES | QQYCRLPLS | 0.59 / 0.75 / 0.53 | 0.62 | 2 of 9 (3.95) |
| 37 | KSSQSVLYESRNRNSVA | WEQTRES | QQYHRLPLS | 2.65 / 2.40 / 2.85 | 2.63 | 4 of 9 (4.45) |
| 38 | KSSQSVLYESRNKNSYA | WASTREI | GQYHRLPLS | 4.16 / 5.00 / ND | 4.58 | 0 of 9 |
| 39 | KSSQSVLYESRNKNIVA | WASTRES | QQKHRLPLS | ND / ND / ND | ND | 2 of 9 (5.28) |

The closing 4 entries, repeated:

CDR-L1,CDR-L2,CDR-L3,log10 Kd (nM) by replicate,"mean, log10 nM",signal with controls
KSSQSVLYESFNKNSVA,WGSTRES,QQYCRLPLS,0.59 / 0.75 / 0.53,0.62,2 of 9 (3.95)
KSSQSVLYESRNRNSVA,WEQTRES,QQYHRLPLS,2.65 / 2.40 / 2.85,2.63,4 of 9 (4.45)
KSSQSVLYESRNKNSYA,WASTREI,GQYHRLPLS,4.16 / 5.00 / ND,4.58,0 of 9
KSSQSVLYESRNKNIVA,WASTRES,QQKHRLPLS,ND / ND / ND,ND,2 of 9 (5.28)